Laboratory results reported in paper PMC10916402, “Meropenem-ANT3310, a unique β-lactam-β-lactamase inhibitor combination with expanded antibacterial spectrum against Gram-negative pathogens including carbapenem-resistant Acinetobacter baumannii” (Antimicrobial Agents and Chemotherapy, 2024).
pIC50: −log10 of the molar value.

Chains of the proteins cited; added tags and fusions are not shown. Residues count along the entry.
UniProt Q6XEC0, 23-265, looked up, species assumed: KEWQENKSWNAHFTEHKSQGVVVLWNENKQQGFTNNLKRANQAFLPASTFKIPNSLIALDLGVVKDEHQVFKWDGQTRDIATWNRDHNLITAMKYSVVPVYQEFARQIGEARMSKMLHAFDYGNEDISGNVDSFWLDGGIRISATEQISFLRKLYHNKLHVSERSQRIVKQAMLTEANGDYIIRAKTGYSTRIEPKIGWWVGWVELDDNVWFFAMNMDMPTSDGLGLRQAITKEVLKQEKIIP

Target: OXA-48 (Klebsiella pneumoniae, UniProt Q6XEC0)
Test: In vitro SBL inhibition assay (nitrocefin hydrolysis), IC50
Type: biochemical
Details: 10 min preincubation, 30°C, read-out: Enzyme IC50
Description: Nitrocefin (Sigma-Aldrich, St Louis, MO, USA), a chromogenic cephalosporin antibiotic (λ, 482 nm; εM, 15,000 M^−1.cm^−1), was used as a reporter substrate at 100 µM for KPC-2, OXA-23, and OXA-48, at 200 µM for OXA-24 and OXA-51, and at 50 µM for OXA-58. Enzymes were preincubated in the presence of varying concentrations of each compound (0.006 to 3000 nM, diluted twofold in dimethyl sulfoxide (DMSO) for KPC-2, OXA-23, and OXA-48 assays and 0.51 to 10,000 nM diluted threefold in DMSO for OXA-24, OXA-51, and OXA-58) for 10 min at 30°C. Nitrocefin was then added and its hydrolysis by the uninhibited enzyme fraction was followed at an absorbance wavelength of 482 nm for 10 min at 30°C using Envision UV fluorescence plate reader (Perkin Elmer, Waltham, MA, USA). Hydrolysis rate data were used to determine inhibitory activities, expressed in IC50 values [corresponding to the compound concentration (µM) required to inhibit 50% of enzymatic reaction].

SMILES: O=C(NNC(=O)[C@@H]1CC[C@@H]2CN1C(=O)N2OS(=O)(=O)O)[C@@H]1CCCNC1 [Zid, zidebactam]
- pIC50: < 5.52
